{"sequences": {"note": "Protein sequences, listed by entry. Tags and fused reporters are not part of them.", "UniProt Q15722, whole entry": "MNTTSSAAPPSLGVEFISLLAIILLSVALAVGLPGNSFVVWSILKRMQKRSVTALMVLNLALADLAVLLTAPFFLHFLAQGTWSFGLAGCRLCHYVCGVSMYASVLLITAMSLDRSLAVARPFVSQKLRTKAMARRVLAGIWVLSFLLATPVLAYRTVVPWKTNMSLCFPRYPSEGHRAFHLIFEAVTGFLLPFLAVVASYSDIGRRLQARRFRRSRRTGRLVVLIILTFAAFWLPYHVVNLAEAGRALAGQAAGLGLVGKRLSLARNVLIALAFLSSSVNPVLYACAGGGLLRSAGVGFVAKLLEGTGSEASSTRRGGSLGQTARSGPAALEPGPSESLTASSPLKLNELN"}, "source": "patent EP0999856B1", "about": "“RADIOPHARMACEUTICALS FOR IMAGING INFECTION AND INFLAMMATION” (Bristol-Myers Squibb Pharma Company, priority 1996, dated 1998)", "origin": "cited, not measured here", "biological_target": "LTB4 receptor (Homo sapiens, UniProt Q15722)", "conditions": "Sawyer et al.; J. Med. Chem., 1995, 38, 4411-32; cited from earlier work", "data": [{"smiles": "CCc1cc(-c2ccc(F)cc2)c(O)cc1OCCCCCC(C)(C)c1nnn[nH]1", "values": [{"measurement": "affinity for the LTB4 receptor", "value": "excellent affinity"}]}]}
